pIC50: −log10 of the molar value.
Molecular target: T1, recombinant human phosphodiesterase 10A1 enzyme (Homo sapiens, UniProt Q9Y233)
T1 construct: purchased BPS Biosciences; host or cells: Baculovirus infected Sf9 cells
Experiment: PDE10 inhibition assay (PDELight)
Assay type: biochemical
Description: In a 96-well plate, recombinant human phosphodiesterase 10A1 enzyme (10 U/well) expressed in Baculovirus infected Sf9 cells (BPS Biosciences) was combined with 1 uM cAMP substrate (Sigma). […] Using a PDELight® kit (Cambrex), the amount of AMP produced in the reaction from the hydrolysis of cAMP was quantified using PDELight AMP Detection Reagent which converts the AMP directly to ATP. The assay uses luciferase, which catalyses the formation of light from the newly formed ATP and luciferin. The luminescence was read on a Victor Light 1420 luminometer. IC50 calculations were plotted using a nonlinear regression curve fit.

Protein sequences, listed by entry. Tags and fused reporters are not part of them. Residues count along the entry.
UniProt Q9Y233, 1-779 isoform Q9Y233-1: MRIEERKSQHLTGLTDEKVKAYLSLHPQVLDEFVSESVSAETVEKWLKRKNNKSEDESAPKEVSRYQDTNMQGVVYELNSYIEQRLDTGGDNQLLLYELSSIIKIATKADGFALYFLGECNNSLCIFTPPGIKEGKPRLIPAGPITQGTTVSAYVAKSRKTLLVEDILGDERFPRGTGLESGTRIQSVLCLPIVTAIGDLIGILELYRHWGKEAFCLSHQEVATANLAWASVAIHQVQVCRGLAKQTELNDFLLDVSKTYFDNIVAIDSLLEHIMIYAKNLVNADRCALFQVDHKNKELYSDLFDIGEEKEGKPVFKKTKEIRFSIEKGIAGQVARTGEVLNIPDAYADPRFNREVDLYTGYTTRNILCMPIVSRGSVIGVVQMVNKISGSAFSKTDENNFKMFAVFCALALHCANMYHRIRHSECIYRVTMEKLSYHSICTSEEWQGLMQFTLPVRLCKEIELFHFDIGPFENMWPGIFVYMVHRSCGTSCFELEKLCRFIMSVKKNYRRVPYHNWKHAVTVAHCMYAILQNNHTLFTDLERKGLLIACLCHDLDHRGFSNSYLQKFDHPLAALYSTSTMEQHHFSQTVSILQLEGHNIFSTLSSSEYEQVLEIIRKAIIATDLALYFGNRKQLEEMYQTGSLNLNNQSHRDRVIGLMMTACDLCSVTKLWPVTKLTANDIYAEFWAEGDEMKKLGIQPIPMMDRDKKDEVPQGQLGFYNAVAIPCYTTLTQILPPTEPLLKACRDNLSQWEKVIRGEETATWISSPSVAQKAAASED

Compound: COc1ccc(Cc2nccc3cc(OC)c(OC)cc23)cc1OC [Papaverine, reference compound]
- pIC50: 5.43 to 6.52

Source: patent US20110039873A1, “SUBSTITUTED PYRAZOLO[1,5-a] PYRIDINE COMPOUNDS HAVING MULTI-TARGET ACTIVITY” (priority 2009, published 2011)
